Assays:
[1] = target: PIK3CA (human) (UniProt P42336); assay: Inhibition of PIK3CA Kinase Activity
[2] = target: PIK3CA (human), P42336 [Antiproliferation of PI3K Mutated BT20 Cells]; assay: Cell-Based Assay

Protein sequences, listed by entry. Tags and fused reporters are not part of them.
UniProt P42336, whole entry, looked up: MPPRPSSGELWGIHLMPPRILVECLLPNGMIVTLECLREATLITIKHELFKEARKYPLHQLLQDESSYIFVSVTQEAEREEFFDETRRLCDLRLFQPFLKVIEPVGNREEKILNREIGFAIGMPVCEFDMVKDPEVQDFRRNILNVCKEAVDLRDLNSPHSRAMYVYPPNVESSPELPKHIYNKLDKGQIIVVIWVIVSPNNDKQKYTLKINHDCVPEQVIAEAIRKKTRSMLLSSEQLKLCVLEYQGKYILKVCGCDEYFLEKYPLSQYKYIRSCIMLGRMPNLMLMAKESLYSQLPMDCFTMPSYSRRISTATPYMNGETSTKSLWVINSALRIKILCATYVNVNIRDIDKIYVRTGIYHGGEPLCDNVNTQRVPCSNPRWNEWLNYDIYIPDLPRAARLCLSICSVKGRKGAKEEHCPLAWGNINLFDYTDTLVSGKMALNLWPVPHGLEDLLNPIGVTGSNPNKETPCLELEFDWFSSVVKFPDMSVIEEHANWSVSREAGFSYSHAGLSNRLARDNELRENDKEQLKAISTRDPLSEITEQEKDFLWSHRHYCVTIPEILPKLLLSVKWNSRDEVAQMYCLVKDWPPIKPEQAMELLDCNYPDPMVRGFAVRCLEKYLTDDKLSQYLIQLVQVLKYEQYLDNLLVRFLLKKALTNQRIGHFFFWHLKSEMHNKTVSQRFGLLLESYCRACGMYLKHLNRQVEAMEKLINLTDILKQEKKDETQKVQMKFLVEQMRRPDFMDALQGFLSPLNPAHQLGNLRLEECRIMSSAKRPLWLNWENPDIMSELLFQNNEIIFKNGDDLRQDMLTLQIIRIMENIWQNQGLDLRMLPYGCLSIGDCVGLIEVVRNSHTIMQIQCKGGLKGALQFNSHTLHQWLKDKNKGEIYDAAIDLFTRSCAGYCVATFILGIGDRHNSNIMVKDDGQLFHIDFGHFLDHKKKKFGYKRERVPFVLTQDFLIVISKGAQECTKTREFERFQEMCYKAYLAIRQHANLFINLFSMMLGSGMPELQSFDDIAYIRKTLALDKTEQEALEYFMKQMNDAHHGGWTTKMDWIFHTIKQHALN

COc1ccc(-c2cc3c(C)nc(N)nc3n(C3CCCC3)c2=O)cn1
IC50 [1]: 0.00296 µM | IC50 [2]: 0.0161 µM

COc1ncc(-c2cc3c(C)nc(N)nc3n(C3CCCC3)c2=O)cc1F
IC50 [2]: 0.00792 µM

Cc1nc(N)nc2c1cc(-c1cnc3ccccc3c1)c(=O)n2[C@H]1CC[C@H](OCCO)CC1
IC50 [1]: 0.0176 µM | IC50 [2]: 0.0295 µM

COc1ccc(-c2cc3c(C)nc(N)nc3n(CC(C)(C)O)c2=O)cn1
IC50 [2]: 0.34 µM

Cc1nc(N)nc2c1cc(-c1ccc3c(c1)OCCO3)c(=O)n2[C@H]1CC[C@H](O)CC1
IC50 [2]: 0.0348 µM

Cc1nc(N)nc2c1cc(-c1cn[nH]c1)c(=O)n2C1CCC1
IC50 [2]: 0.0167 µM

COc1ccc(-c2cc3c(C)nc(N)nc3n(CC3CCOC3)c2=O)cn1 (stereo not drawn)
IC50 [2]: 0.145 µM

COc1ccc(-c2cc3c(C)nc(N)nc3n(CC(C)C)c2=O)cn1
IC50 [2]: 0.0793 µM

CCOC(=O)c1cccc(-c2cc3c(C)nc(NC)nc3n(C3CCCC3)c2=O)c1
IC50 [1]: 7.08 µM | IC50 [2]: 10 µM

Cc1nc(N)nc2c1cc(Br)c(=O)n2[C@@H]1CC[C@H](O)C1
IC50 [2]: 1.04 µM

CCNc1nc(C)c2cc(-c3ccc(OC)nc3)c(=O)n(C3CCCC3)c2n1
IC50 [1]: 0.00503 µM | IC50 [2]: 0.017 µM

CO[C@H]1CC[C@H](n2c(=O)c(-c3cn[nH]c3)cc3c(C)nc(N)nc32)CC1
IC50 [2]: 0.00469 µM

COc1ncc(-c2cc3c(C)nc(N)nc3n([C@H]3CC[C@H](OC)CC3)c2=O)cc1F
IC50 [2]: 0.00339 µM

COc1ncc(-c2cc3c(C)nc(N)nc3n([C@H]3CC[C@@H](O)CC3)c2=O)cc1F
IC50 [2]: 0.00802 µM

COc1ncc(-c2cc3c(C)nc(N)nc3n([C@H]3CC[C@@H](O)CC3)c2=O)cn1
IC50 [2]: 0.0437 µM

Cc1nc(N)nc2c1cc(-c1cnn(C)c1)c(=O)n2[C@@H]1CC[C@@H](O)C1
IC50 [2]: 1.3 µM

Cc1nc(N)nc2c1cc(-c1cn[nH]c1)c(=O)n2[C@@H]1CC[C@H](O)C1
IC50 [2]: 0.0472 µM

CCNc1nc(C)c2cc(CCC(N)=O)c(=O)n(C3CCCC3)c2n1
IC50 [2]: 8.37 µM

Cc1nc(N)nc2c1cc(-c1cn[nH]c1)c(=O)n2CC1CCCO1 (stereo not drawn)
IC50 [2]: 0.249 µM

Cc1nc(N)nc2c1cc(-c1cnn(C)c1)c(=O)n2[C@@H]1CC[C@H](O)C1
IC50 [2]: 0.934 µM

COc1ncc(-c2cc3c(C)nc(N)nc3n([C@H]3CC[C@H](O)CC3)c2=O)cn1
IC50 [2]: 0.0251 µM

Cc1nc(N)nc2c1cc(-c1cn[nH]c1)c(=O)n2C(C)C
IC50 [1]: 0.0294 µM | IC50 [2]: 0.00964 µM

Cc1nc(N)nc2c1cc(-c1ccc(N(C)C)nc1)c(=O)n2[C@H]1CC[C@H](O)CC1
IC50 [1]: 0.0059 µM | IC50 [2]: 0.00597 µM

CNc1nc(C)c2cc(-c3ccc(OC)nc3)c(=O)n([C@H]3CC[C@H](O)CC3)c2n1
IC50 [2]: 0.00781 µM

Cc1nc(N)nc2c1cc(-c1ccc(N(C)C)nc1)c(=O)n2[C@H]1CC[C@@H](O)CC1
IC50 [1]: 0.012 µM | IC50 [2]: 0.0176 µM

Cc1nc(N)nc2c1cc(-c1cc[nH]n1)c(=O)n2[C@H]1CC[C@H](OCCO)CC1
IC50 [1]: 0.0146 µM | IC50 [2]: 0.137 µM

COc1ncc(-c2cc3c(C)nc(N)nc3n([C@H]3CC[C@H](O)CC3)c2=O)cc1F
IC50 [2]: 0.0031 µM

CNc1nc(C)c2cc(C(=O)Nc3ccccn3)c(=O)n(C3CCCC3)c2n1
IC50 [2]: 0.265 µM

COc1ccc(-c2cc3c(C)nc(N)nc3n(C3CCC3)c2=O)cn1
IC50 [1]: 0.0082 µM | IC50 [2]: 0.0265 µM

Cc1nc(N)nc2c1cc(-c1cnc3[nH]ccc3c1)c(=O)n2CC(C)(C)O
IC50 [2]: 0.116 µM

CNc1nc(C)c2cc(-c3ccc(OC)nc3)c(=O)n(C3CCCC3)c2n1
IC50 [1]: 0.00103 µM | IC50 [2]: 0.000793 µM

Cc1nc(N)nc2c1cc(-c1cn[nH]c1)c(=O)n2[C@@H]1CC[C@@H](O)C1
IC50 [2]: 0.262 µM

COc1ccc(-c2cc3c(C)nc(N)nc3n(C3CCOC3)c2=O)cn1 (stereo not drawn)
IC50 [1]: 0.0075 µM | IC50 [2]: 0.143 µM

Cc1nc(N)nc2c1cc(-c1cn[nH]c1)c(=O)n2CC1CCOC1 (stereo not drawn)
IC50 [2]: 0.0949 µM

Cc1nc(N)nc2c1cc(-c1cnc3ccccc3c1)c(=O)n2[C@H]1CC[C@@H](OCCO)CC1
IC50 [1]: 0.0529 µM | IC50 [2]: 0.0962 µM

CNc1nc(C)c2cc(-c3ccc(OC)nc3)c(=O)n(CCN)c2n1
IC50 [2]: 1.27 µM

Source: the Kinase Knowledgebase extract (Sharma et al. 2016)
